Here are results for one compound from BindingDB's records for doi:10.1016/S0893-133X(96)00187-X (University of Toronto, 1997).

Protein sequences, listed by entry. Tags and fused reporters are not part of them.
UniProt P14416, whole entry: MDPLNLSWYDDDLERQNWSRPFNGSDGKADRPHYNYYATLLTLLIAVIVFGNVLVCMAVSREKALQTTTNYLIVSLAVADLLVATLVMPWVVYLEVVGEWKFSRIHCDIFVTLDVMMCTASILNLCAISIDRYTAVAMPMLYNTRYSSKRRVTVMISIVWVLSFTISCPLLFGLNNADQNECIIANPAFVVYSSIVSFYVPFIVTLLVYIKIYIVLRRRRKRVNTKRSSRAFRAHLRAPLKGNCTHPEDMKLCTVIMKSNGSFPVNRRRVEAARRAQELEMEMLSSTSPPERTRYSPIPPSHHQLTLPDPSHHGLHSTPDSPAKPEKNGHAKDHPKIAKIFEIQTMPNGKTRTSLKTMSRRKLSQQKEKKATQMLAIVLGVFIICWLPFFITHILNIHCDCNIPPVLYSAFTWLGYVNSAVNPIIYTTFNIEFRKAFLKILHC

This assay has as its target D(2) dopamine receptor (Homo sapiens, UniProt P14416).

Each structure is given as a SMILES string.

Compound `CCN1CCC[C@H]1CNC(=O)c1c(O)c(Cl)cc(Cl)c1OC` [3,5-Dichloro-N-(1-ethyl-pyrrolidin-2-ylmethyl)-2-hydroxy-6-methoxy-benzamide (raclopride)] returned an inhibitory constant (Ki) of 640 pM.
